# Screens (PubChem BioAssay)
# Casp6 inh: caspase-6 (human) enzyme inhibition; AID 686996; P55212; hit rate 0.53% among 350,000; inhibition, % at 12.5 µM; purified caspase-6, Z-VEID-R110 cleavage fluorescence;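 active means mean inhibition across replicates at least about 35%, with every replicate also reaching that limit, limit read from the data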;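 further: 0% = median of neutral control wells and 100% = no fluorescence left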
# RAD54 inh: RAD54 (human) branch migration inhibition; RAD54 Holliday junction branch migration, FAM/BHQ fluorescence; inhibition, % at 10.4 µM; hit rate 0.14% among 360,000;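 active means mean normalized replicate activity at least 40 and at least half of replicates scoring 40 or more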;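 further: 0% = median of neutral control wells and 100% = median of positive control wells; inhibitors cause a drop in the FAM fluorescence signal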
# INS-1E GSIS act: primary screen for activators of insulin secretion dependent on glucose, INS-1E cells, GLuc reporter luminescence; INS-1E GLuc reporter insulin secretion, 2-3 h; activation, % at 16.6 µM; hit rate 0.61% among 370,000; AID 743287;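 active means lowest replicate activation of at least 40%, so every replicate reaches that level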;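 further: 0% = median of neutral control wells and 100% = median of IBMX positive control wells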
# PglD DTNB: inhibitors of Campylobacter jejuni PglD acetyltransferase. purified PglD enzyme, DTNB colorimetric CoA detection. inhibition, % at 12.5 µM. hit rate 0.098% among 360,000. AID 602405; in the data active means inhibition above about 16%, passing the limit was not always enough
# Yeast UUG start-1: yeast start codon fidelity modulation; AID 602363; activity score, % at 18.7 µM; S. cerevisiae UUG-firefly luciferase reporter, luminescence/redox ratio; 0.13% of 350,000 active;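 active means replicate mean at a twofold rise or more, about +100% in these data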;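 further: firefly luciferase made from a UUG start codon reports start codon fidelity; reporter light over untreated wells divided by growth signal over untreated wells; some hits fall short of that in this replicate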
# RAD52 anneal inh: blocks human RAD52 DNA annealing | P43351 | recombinant RAD52 DNA annealing, FRET fluorescence | inhibition, % at 18.7 µM | hit rate 0.46% among 360,000 | AID 651710;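 active means every replicate showing at least 50% inhibition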
# Yeast UUG start-2: alters UUG start codon use in yeast; S. cerevisiae UUG-start firefly luciferase, luminescence, 4 h; 100% means double the DMSO signal; activation, % at 38 µM; AID 652061; shares compounds with Yeast UUG start-1; 540 tested, under 10 active;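 active means signal increase whose fitted curve reaches an absolute level of 40 at a concentration under 10 µM; inactive means activity opposite to the expected increase, or the rest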
# Active calls of the source: *; i = inactive; . = not tested or not shown. A selection: hits, their analogues and other compounds. The true share with any hit is near 1.5%.
SMILES,Casp6 inh,RAD54 inh,INS-1E GSIS act,PglD DTNB,Yeast UUG start-1,RAD52 anneal inh,Yeast UUG start-2
COc1ccc2oc(C(=O)OCC(=O)NCc3ccc(OC)c(OC)c3)c(C)c2c1,3,2,7,-2,-3,-5,6
COc1ccc2oc(C(=O)OCC(=O)N(Cc3ccccc3)C(C)C)c(C)c2c1,2,.,-35,.,.,-14,.
COc1ccc2oc(C(=O)OCC(=O)N(C)Cc3ccccc3)c(C)c2c1,3,-7,-4,1,11,-22,10
COc1ccc(-n2nc(C(=O)NCC(=O)O)c3ccccc3c2=O)cc1,-3,10,-6,0,-14,1,.
CCOC(=O)CNC(=O)c1nn(-c2ccc(OCC)cc2)c(=O)c2ccccc12,.,7,7,1,119*,.,-9
O=C1c2ccccc2C(=O)c2c(Nc3ccc(CCO)cc3)ccc(O)c21,1,2,-18,2,active,-12,-24
O=C(Nc1ccc(Nc2ccccc2)cc1)c1ccco1,.,-3,.,-5,610*,.,-14
COc1ccc(NC(=O)N2CC(=O)N3[C@H](CO)[C@H](c4ccc(C5=CCCC5)cc4)[C@@H]3C2)cc1,-1,.,-14,.,.,-10,.
COc1ccccc1CCNC(=O)c1ccc(NC(=O)CC2SC(N3CCCCC3)=NC2=O)cc1 (configuration not stated),5,16,-14,.,117*,-3,7
COc1ccc(-c2cn(CC(=O)N3CCN(C)CC3)nn2)cc1OC,-16,-3,.,2,148*,6,i
Cc1cccc(Nc2nnc(SC3CCOC3=O)s2)c1C (configuration not stated),2,.,-2,.,.,-7,.
O=C(CN1C(=O)c2ccccc2S1(=O)=O)c1ccc(O)c(O)c1,8,1,-11,-8,165*,-10,-5
CCOC(=O)c1c[nH]c2c([N+](=O)[O-])cc(OC)cc2c1=O,7,1,-1,-7,6,-6,.
O=C(C[C@@H]1CC[C@H](NC(=O)c2cccc(F)c2)[C@@H](CO)O1)NCc1ccc(Oc2ccccc2)cc1,3,-7,6,3,145*,-4,i
O=C(COC(=O)c1cc2ccccc2o1)c1ccccc1,.,6,-1,2,-4,.,10
O=C(Oc1ccccc1)c1cc2ccccc2o1,.,5,-8,-2,-17,.,.
COc1ccc(C(=O)NCc2nnc(SCC(=O)NC3CCCCC3)n2C)cc1,0,-11,13,-6,349*,-5,-6
Cc1cc(C)cc(-n2ccnc2SCC(=O)c2c(N)n(C3CC3)c(=O)[nH]c2=O)c1,-2,5,10,-4,-8,-6,.
O=C(Nc1ccccc1F)N[C@H]1CC[C@H](CCNS(=O)(=O)c2ccc(F)cc2)O[C@H]1CO,-1,-7,-13,1,154*,20,i
Cc1ccc(S(=O)(=O)N[C@H]2CC[C@H](CCNS(=O)(=O)Cc3ccccc3)O[C@@H]2CO)cc1,2,-10,-8,-2,148*,-5,i
O=C(NCC[C@@H]1CC[C@H](NS(=O)(=O)c2cccc(F)c2)[C@H](CO)O1)C1CCCC1,0,0,3,1,145*,21,i
CCCNC(=O)C1(C)CCCN(C(=O)c2ccc(OC(F)F)cc2)C1 (configuration not stated),-1,-2,6,-1,-9,3,.
O=C(O)c1cc(-c2cccs2)nn1-c1cccc(Cl)c1,3,3,0,.,-21,-19,.
CC(C)CNC(=O)c1cccc(NC(=O)CSc2ccccc2)c1,.,.,2,.,.,.,.
CC(C)CNC(=O)c1cccc(NC(=O)Cc2ccc(Cl)cc2)c1,.,8,-1,-2,249*,.,-3
CCOC(=O)C1=C(COC(=O)CCc2ccc(F)cc2)NC(=O)NC1C (configuration not stated),-1,8,1,-5,-1,-22,.
O=C(Nc1ccccc1C(F)(F)F)c1ccsc1,-3,-6,-4,-1,5,-5,.
O=C(NNc1ccccc1C(F)(F)F)c1sccc1Br,-1,-3,-3,-5,active,-11,-4

# Rewritten with each value named: 4 of the compounds above
canonical_smiles: O=C(Nc1ccccc1C(F)(F)F)c1ccsc1
  Casp6 inh: -3
  RAD54 inh: -6
  INS-1E GSIS act: -4
  PglD DTNB: -1
  Yeast UUG start-1: 5
  RAD52 anneal inh: -5
  Yeast UUG start-2: .

canonical_smiles: O=C(CN1C(=O)c2ccccc2S1(=O)=O)c1ccc(O)c(O)c1
  Casp6 inh: 8
  RAD54 inh: 1
  INS-1E GSIS act: -11
  PglD DTNB: -8
  Yeast UUG start-1: 165*
  RAD52 anneal inh: -10
  Yeast UUG start-2: -5

canonical_smiles: Cc1ccc(S(=O)(=O)N[C@H]2CC[C@H](CCNS(=O)(=O)Cc3ccccc3)O[C@@H]2CO)cc1
  Casp6 inh: 2
  RAD54 inh: -10
  INS-1E GSIS act: -8
  PglD DTNB: -2
  Yeast UUG start-1: 148*
  RAD52 anneal inh: -5
  Yeast UUG start-2: i

canonical_smiles: COc1ccc(C(=O)NCc2nnc(SCC(=O)NC3CCCCC3)n2C)cc1
  Casp6 inh: 0
  RAD54 inh: -11
  INS-1E GSIS act: 13
  PglD DTNB: -6
  Yeast UUG start-1: 349*
  RAD52 anneal inh: -5
  Yeast UUG start-2: -6
